US20260382623A1, “NOVEL COMPOUND FOR INHIBITING PROTEIN KINASES AND PHARMACEUTICAL COMPOSITION COMPRISING SAME” (published 2026)
Each block holds one compound with its values, some of them ahead of it.

Tests used:
C4-2B cells = assay: Cell growth inhibition, C4-2B (CCK-8); details: read-out: Cell growth inhibition GI50, 72 hours
AsPC-1 = assay: Cell growth inhibition, AsPC-1 (CCK-8); details: read-out: Cell growth inhibition GI50, AsPC-1, 72 hours
SW620 = assay: Cell growth inhibition, SW620 (CCK-8); details: read-out: Cell growth inhibition GI50, SW620, 72 hours
SW480 = assay: Cell growth inhibition, SW480 (CCK-8); details: read-out: Cell growth inhibition GI50, SW480, 72 hours
22Rv1 cells = assay: Cell growth inhibition, 22Rv1 (CCK-8); details: read-out: Cell growth inhibition GI50, 22Rv1, 72 hours
A549 = assay: Cell growth inhibition, A549 (CCK-8); details: read-out: Cell growth inhibition GI50, A549, 72 hours
HT-29 = assay: Cell growth inhibition, HT-29 (CCK-8); details: read-out: Cell growth inhibition GI50, HT-29, 72 hours
A172 = assay: Cell growth inhibition, A172 (CCK-8); details: read-out: Cell growth inhibition GI50, A172, 72 hours
MDA-MB-231 = assay: Cell growth inhibition, MDA-MB-231 (CCK-8); details: read-out: Cell growth inhibition GI50, MDA-MB-231, 72 hours
HCT-116 = assay: Cell growth inhibition, HCT-116 (CCK-8); details: read-out: Cell growth inhibition GI50, HCT-116, 72 hours
DLD-1 = assay: Cell growth inhibition, DLD-1 (CCK-8); details: read-out: Cell growth inhibition GI50, DLD-1, 72 hours
SKOV3 = assay: Cell growth inhibition, SKOV3 (CCK-8); details: read-out: Cell growth inhibition GI50, SKOV3, 72 hours
HCI-H460 = assay: Cell growth inhibition, HCI-H460 (CCK-8); details: read-out: Cell growth inhibition GI50, HCI-H460, 72 hours
MIA-Paca-2 = assay: Cell growth inhibition, MIA-Paca-2 (CCK-8); details: read-out: Cell growth inhibition GI50, MIA-Paca-2, 72 hours

Structure (SMILES): Cc1ccc(NC(=O)c2cc(O)cc(C(F)(F)F)c2)cc1N1Cc2cnc(N)nc2C2(CC2)C1=O
GI50 (C4-2B cells): < 10 µM

GI50 (AsPC-1): < 10 µM
GI50 (SW620): < 5 µM
GI50 (SW480): < 5 µM
Structure (SMILES): Cc1ccc(NC(=O)c2cc(N3CCOCC3)cc(C(F)(F)F)c2)cc1N1Cc2cnc(NC3CC3)nc2C2(CC2)C1=O
GI50 (C4-2B cells): < 5 µM

GI50 (22Rv1 cells): < 5 µM
Structure (SMILES): COc1cc(C(=O)Nc2ccc(C)c(N3Cc4cnc(N)nc4C4(CC4)C3=O)c2)cc(C(F)(F)F)c1
GI50 (C4-2B cells): < 5 µM

Structure (SMILES): Cc1ccc(NC(=O)c2cc(N3CCN(C)CC3)cc(C(F)(F)F)c2)cc1N1Cc2cnc(N)nc2C2(CC2)C1=O
GI50 (C4-2B cells): < 10 µM

GI50 (A549): < 5 µM
GI50 (HT-29): < 10 µM
Structure (SMILES): Cc1ccc(NC(=O)c2cccc(C(F)(F)F)c2)cc1N1Cc2cnc(NCCO)nc2C2(CC2)C1=O
GI50 (A172): < 5 µM

Structure (SMILES): Cc1ccc(NC(=O)c2cc(N3CCNCC3)cc(C(F)(F)F)c2)cc1N1Cc2cnc(NC3CC3)nc2C2(CC2)C1=O
GI50 (C4-2B cells): < 10 µM

Structure (SMILES): Cc1ccc(NC(=O)c2cncc(C(F)(F)F)c2)cc1N1Cc2cnc(NCCO)nc2C2(CC2)C1=O
GI50 (A172): < 5 µM

GI50 (MDA-MB-231): < 5 µM
GI50 (AsPC-1): < 5 µM
GI50 (HCT-116): < 5 µM
GI50 (SW620): < 5 µM
GI50 (SW480): < 5 µM
Structure (SMILES): Cc1ccc(NC(=O)c2cccc(C(F)(F)F)c2)cc1N1Cc2cnc(NC3CC3)nc2C2(CC2)C1=O
GI50 (C4-2B cells): < 5 µM

Structure (SMILES): Cc1ccc(NC(=O)c2cc(F)cc(C(F)(F)F)c2)cc1N1Cc2cnc(NC3CC3)nc2C2(CC2)C1=O
GI50 (C4-2B cells): < 10 µM

Structure (SMILES): Cc1ccc(NC(=O)c2ccc(C)c(C(F)(F)F)c2)cc1N1Cc2cnc(NC3CC3)nc2C2(CC2)C1=O
GI50 (C4-2B cells): < 5 µM

Structure (SMILES): Cc1ccc(NC(=O)c2cc(N(C)CCN(C)C)cc(C(F)(F)F)c2)cc1N1Cc2cnc(NC3CC3)nc2C2(CC2)C1=O
GI50 (C4-2B cells): < 10 µM

GI50 (MDA-MB-231): < 5 µM
GI50 (HCT-116): < 5 µM
GI50 (SW620): < 5 µM
GI50 (SW480): < 5 µM
Structure (SMILES): Cc1ccc(NC(=O)c2cc(F)cc(C(F)(F)F)c2)cc1N1Cc2cnc(N)nc2C2(CC2)C1=O

GI50 (22Rv1 cells): < 5 µM
Structure (SMILES): Cc1ccc(NC(=O)c2ccc(F)c(C(F)(F)F)c2)cc1N1Cc2cnc(N)nc2C2(CC2)C1=O
GI50 (C4-2B cells): < 5 µM

Structure (SMILES): Cc1ccc(NC(=O)c2cc(N3CCNCC3)cc(C(F)(F)F)c2)cc1N1Cc2cnc(N)nc2C2(CC2)C1=O
GI50 (C4-2B cells): < 10 µM

GI50 (22Rv1 cells): < 5 µM
Structure (SMILES): Cc1ccc(NC(=O)c2ccc(Cl)c(C(F)(F)F)c2)cc1N1Cc2cnc(N)nc2C2(CC2)C1=O
GI50 (C4-2B cells): < 5 µM

Structure (SMILES): Cc1ccc(NC(=O)c2cc(N3CCOCC3)cc(C(F)(F)F)c2)cc1N1Cc2cnc(N)nc2C2(CC2)C1=O
GI50 (C4-2B cells): < 5 µM

Structure (SMILES): Cc1cn(-c2cc(C(=O)Nc3ccc(C)c(N4Cc5cnc(N)nc5C5(CC5)C4=O)c3)cc(C(F)(F)F)c2)cn1
GI50 (C4-2B cells): < 5 µM

Structure (SMILES): Cc1ccc(NC(=O)c2cc(N3CCN(C)CC3)cc(C(F)(F)F)c2)cc1N1Cc2cnc(NC3CC3)nc2C2(CC2)C1=O
GI50 (C4-2B cells): < 5 µM

Structure (SMILES): COCCN(C)c1cc(C(=O)Nc2ccc(C)c(N3Cc4cnc(N)nc4C4(CC4)C3=O)c2)cc(C(F)(F)F)c1
GI50 (C4-2B cells): < 5 µM

Structure (SMILES): COCCN(C)c1cc(C(=O)Nc2ccc(C)c(N3Cc4cnc(NC5CC5)nc4C4(CC4)C3=O)c2)cc(C(F)(F)F)c1
GI50 (C4-2B cells): < 5 µM

Structure (SMILES): Cc1ccc(NC(=O)c2cncc(C(F)(F)F)c2)cc1N1Cc2cnc(N[C@@H](C)CO)nc2C2(CC2)C1=O
GI50 (A172): < 5 µM

Structure (SMILES): Cc1ccc(NC(=O)c2cc(F)cc(F)c2)cc1N1Cc2cnc(N)nc2C2(CC2)C1=O
GI50 (C4-2B cells): < 10 µM

Structure (SMILES): Cc1cc(Nc2ncc3c(n2)C2(CC2)C(=O)N(c2cc(NC(=O)c4cccc(C(F)(F)F)c4)ccc2C)C3)n(C)n1
GI50 (C4-2B cells): < 5 µM

GI50 (MDA-MB-231): < 5 µM
GI50 (DLD-1): < 5 µM
GI50 (SKOV3): < 5 µM
GI50 (22Rv1 cells): < 5 µM
GI50 (HCI-H460): < 5 µM
GI50 (SW620): < 5 µM
GI50 (SW480): < 5 µM
Structure (SMILES): Cc1ccc(NC(=O)c2cccc(C(F)(F)F)c2)cc1N1Cc2cnc(N)nc2C2(CC2)C1=O
GI50 (C4-2B cells): < 5 µM

GI50 (MDA-MB-231): < 5 µM
GI50 (DLD-1): < 5 µM
GI50 (MIA-Paca-2): < 5 µM
GI50 (AsPC-1): < 5 µM
GI50 (SKOV3): < 5 µM
GI50 (22Rv1 cells): < 10 µM
GI50 (HCI-H460): < 5 µM
GI50 (SW480): < 5 µM
Structure (SMILES): Cc1ccc(NC(=O)c2cncc(C(F)(F)F)c2)cc1N1Cc2cnc(N)nc2C2(CC2)C1=O
GI50 (C4-2B cells): < 5 µM
